US8993717B2, “Gadd45beta targeting agents” (Imperial Innovations Limited, priority 2009, dated 2015)

biological target: T1, Gadd45β/MKK7 interaction (Homo sapiens, UniProt O14733); assay: ELISA competition assay of biotin-hGadd45β binding to coated GST-MKK7; details: Table V, FIG. 3C
T1 construct: The GST-fused full-length kinase was coated for 16 h at 4° C., at a concentration of 42 nM; made in house
T1 sequence (O14733 1-419): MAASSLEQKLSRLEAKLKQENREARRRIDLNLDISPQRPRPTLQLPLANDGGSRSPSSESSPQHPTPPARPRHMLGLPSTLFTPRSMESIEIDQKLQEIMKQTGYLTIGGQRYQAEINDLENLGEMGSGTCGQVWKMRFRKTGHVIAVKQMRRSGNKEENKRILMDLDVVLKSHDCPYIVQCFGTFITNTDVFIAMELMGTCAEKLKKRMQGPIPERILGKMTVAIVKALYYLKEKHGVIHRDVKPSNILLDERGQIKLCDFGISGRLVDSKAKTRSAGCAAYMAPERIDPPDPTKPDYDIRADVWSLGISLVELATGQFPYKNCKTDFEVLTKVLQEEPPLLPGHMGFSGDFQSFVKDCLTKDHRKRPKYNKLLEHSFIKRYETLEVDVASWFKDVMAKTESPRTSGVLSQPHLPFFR
Protocol: To evaluate the inhibitory properties of peptides, ELISA-based assays were performed. In these assays, a fusion protein of glutathione S-transferase (GST) and mitogen-activated protein kinase kinase 7 (MKK7) was coated onto wells of a 96-well plate, while biotinylated-hGadd45β was used in solution. hGadd45β was biotinylated using an EZ Link NHS-LC-biotin kit (Pierce, Rockford, Ill.), according to Tornatore et al. (Tornatore L., et al. (2008). J Mol Biol; 378:97-111).
Firstly, the association between Gadd45β and MKK7 was investigated by ELISA assays as also reported in Tornatore et al. (Tornatore L., et al. (2008). J Mol Biol; 378:97-111). The GST-fused full-length kinase was coated for 16 h at 4° C., at a concentration of 42 nM in buffer A (25 mM Tris pH 7.5, 150 mM NaCl, 1 mM DTT and 1 mM EDTA) into wells of a 96-well microliter plate. Some wells were filled with buffer alone and were used as blanks. After incubation for 16 h at 4° C., the solutions were removed and the wells were filled with 350 μL of a 1% (w/v) solution of NFDM (Non Fat Dry Milk) in PBS (phosphate buffered saline). The plate was incubated for 1 h at 37° C. in the dark. After washing with buffer T-PBS (PBS with 0.004% (v/v) Tween detergent), the wells were filled with 100 μL of biotinylated-hGadd45β at concentrations ranging from 8.4 nM to 168 nM. Each data point was performed in triplicate. Following incubation for 1 hr in the dark at 37° C. the solutions were removed and the wells were again washed with T-PBS. Then 100 μL of a 1:10,000 dilution of horseradish peroxidase-conjugated streptavidin dissolved in buffer was added to each well and the plate incubated for 1 hr at 37° C. in the dark. After removal of the enzyme solution and washing, 100 μL of the chromogenic substrate o-phenylendiamine (0.4 mg/mL in 50 mM sodium phosphate-citrate buffer, containing 0.4 mg/mL of urea in hydrogen peroxide) was added and the colour was allowed to develop in the dark for 5 min. The reaction was stopped by adding 50 μL of 2.5 M H2SO4. The absorbance at 490 nm was measured in all wells and the values were averaged after subtracting the corresponding blanks. Bound protein was then detected as described above. The molar concentration of biotinylated-hGadd45β at which the half-maximal ELISA signal is detected corresponds to the dissociation constant (KD) (Friguet B, Chaffotte A F, Djavadi-Ohaniance L, Goldberg M E. J Immunol Methods. 1985 Mar. 18; 77 (2):305-19). Binding competition assays were performed by coating GST-MKK7 at 42 nM as described, a concentration of biotinylated-hGadd45β of 21 nM (pre-saturation conditions 1:0.5 mol/mol ratio) and, in a first test, using competitors at 21 nM. The binding of biotinylated hGadd45β to GST-MKK7 was analyzed in the presence of increasing amounts of competitor peptide (concentrations ranging from 0.01 nM to 100 nM), and the values obtained with the competitor were expressed as the percentage of the binding detected in the absence of competitor. […] According to the convention adopted in the table “L-Xaa” and “D-Xaa” refer to the L and D forms of amino acid Xaa.
A simplified combinatorial peptide library (Marasco et al. 2008, Curr. Protein Pept. Sci. 9:447-67) was screened for antagonists of the Gadd45β/MKK7 interaction. This library contained a total of 12^4=20,736 different tetrapeptides formed by combinations of the following amino acid residues Gln (Q), Ser (S), Arg (R), Ala (A), Tyr (Y), Pro (P), Met (M), Cys (C), Phe (F), Leu (L), His (H), Asp (D), and was iteratively deconvoluted in four steps by ELISA competition assays using at each step coated MKK7 (42 nM), soluble-biotin-hGadd45β (21 nM) and each of the 12 sub-libraries (42 nM).

Row | SMILES | IC50 [nM]
1 | CC(=O)N[C@H](Cc1ccc(O)cc1)C(=O)N[C@H](CCC(N)=O)C(=O)N[C@H](Cc1ccccc1)C(N)=O [Ac-Tyr-Gln-Phe-NH2] | > 10
2 | CC(=O)N[C@H](Cc1ccc(O)cc1)C(=O)N[C@H](CC(C)C)C(=O)N[C@H](Cc1ccccc1)C(N)=O [Ac-Tyr-Leu-Phe-NH2] | 1.8
3 | CC(=O)N[C@H](Cc1ccc(O)cc1)C(=O)N[C@H](CC(N)=O)C(=O)N[C@H](CCCNC(=N)N)C(=O)N[C@H](Cc1ccccc1)C(N)=O [Ac-Tyr-Asn-Arg-Phe-NH2] | 10
4 | CC(=O)N[C@H](Cc1ccc(O)cc1)C(=O)N[C@H](CC(C)C)C(=O)N[C@H](CCCNC(=N)N)C(=O)N[C@H](Cc1ccccc1)C(N)=O [Ac-Tyr-Leu-Arg-Phe-NH2] | 5
5 | CSCC[C@@H](NC(=O)[C@@H](Cc1ccc(O)cc1)NC(C)=O)C(=O)N[C@H](Cc1ccccc1)C(N)=O [AC-Tyr-Met-Phe-NH2] | > 10
6 | CC(=O)N[C@H](Cc1ccc(O)cc1)C(=O)N[C@H](CC(N)=O)C(=O)N[C@H](Cc1ccccc1)C(N)=O [Ac-Tyr-Asn-Phe-NH2] | 1.9
7 | CSCC[C@@H](NC(=O)[C@@H](Cc1ccc(O)cc1)NC(C)=O)C(=O)N[C@H](CCCNC(=N)N)C(=O)N[C@H](Cc1ccccc1)C(N)=O [Ac-Tyr-Met-Arg-Phe-NH2] | > 10
8 | CC(=O)N[C@H](Cc1ccc(O)cc1)C(=O)N[C@H](Cc1ccc(O)cc1)C(=O)N[C@H](CCCNC(=N)N)C(=O)N[C@H](Cc1ccccc1)C(N)=O [Compound 18, Ac-Tyr-Tyr-Arg-Phe-NH2] | > 5
9 | CC(=O)N[C@H](Cc1ccc(O)cc1)C(=O)N[C@H](CCC(N)=O)C(=O)N[C@H](CCCNC(=N)N)C(=O)N[C@H](Cc1ccccc1)C(N)=O [Ac-Tyr-Gln-Arg-Phe-NH2] | 5

same assay, conditions: Table VI; compounds 0.01-100 nM

Row | SMILES | IC50 [nM]
10 | CC(=O)N[C@H](Cc1ccc(O)cc1)C(=O)N1CCC[C@@H]1C(=O)N[C@H](Cc1ccccc1)C(N)=O [Compound B13, Ac-YPF-NH2] | 0.645
11 | CC(=O)N[C@H](Cc1ccc(O)cc1)C(=O)N[C@H](CCCNC(=N)N)C(=O)N[C@H](Cc1ccc(O)cc1)C(N)=O [Compound O3, Ac-YRY-NH2] | 0.758
